Experimental data from US20020164721A1, “Design of a polyepitopic construct for the induction of HLA-A2.1 restricted HIV 1 specific CTL responses using HHD mice” (priority 1999, published 2002).

What was measured:
[1] = system: peptide-pulsed HHD-transfected RMAS cells; assay type: in vivo, HHD mice; details: for classification as immunogen: by number of responder mice and strength of responses, peptide in IFA; for Responder/tested mice: without helper peptide, 100 μg peptide s.c. in IFA
[2] = system: peptide-pulsed HHD-transfected RMAS cells; assay type: in vivo, HHD mice; details: with helper peptide; each responder mouse
[3] = system: HHD-transfected RMA-S cells loaded with relevant peptide; test: CTL response of HHD mice injected s.c. with tumor epitopic peptide in IFA (51Cr-release assay); assay type: in vivo
[4] = system: HHD-transfected RMA-S cells loaded with relevant peptide; test: CTL response of A2A2Kb mice injected s.c. with tumor epitopic peptide in IFA (51Cr-release assay); assay type: in vivo; details: responder = at least 10% specific lysis
[5] = system: HHD-transfected RMA-S target cells loaded with relevant peptide; test: CTL response of HHD mice co-immunized in IFA with tumor peptide and HBVc.128 helper peptide; assay type: in vivo; details: 50 μg CD8 peptide + 140 μg HBVc.128 helper in IFA
[6] = system: peptide-loaded HHD-transfected RMA-S cells and HHD-transfected HeLa cells expressing the polyepitope; test: Melanoma polyepitopic pCMV-B10 DNA immunization of HHD mice, CTL assay; assay type: in vivo; details: pCMV-B10 DNA with 10 melanoma epitopes, FIG. 1C and D

| Sequence | classification as immunogen [1] | Responder/tested mice [1] | Maximal specific lysis (%) [2] | hierarchy of CTL inducers ([3]; peptide alone in IFA, by number of responding mice and level of specific lysis) | R/T (responder versus tested mice) ([3]; peptide s.c. in IFA, no helper, responder = at least 10% specific lysis) | R/T (responder versus tested mice) [4] | R/T (responder versus tested mice) [5] | CTL response against the epitope after melanoma polyepitope DNA immunization (in words) ([6]; listed as Melan-A/MART.1,27) | CTL response against the epitope after melanoma polyepitope DNA immunization (in words) ([6]; listed as Melan-A/MART.1.27) |
| --- | --- | --- | --- | --- | --- | --- | --- | --- | --- |
| AKTPLCVTL (KLTPLCVTL) [K9L/T, HIV 1 ENV gp120 (120-128) CD8 epitopic peptide, T variant] | inefficient | 0/6 | 27% | – | – | – | – | – | – |
| AAGIGILTV [Melan-A/MART-1.27] | – | – | – | weak | 2/8 | 0/6 | 4/5 | did not elicit CTL responses | Significant responses |
| SLYNTVATL [S9L, HIV 1 GAG p17 (77-85) CD8 epitopic peptide] | strong | 4/5 | – | – | – | – | – | – | – |
